The text below walks through data of ChEMBL document CHEMBL1938364, “Discovery of orally active pyrazoloquinolines as potent PDE10 inhibitors for the management of schizophrenia” (Bioorg Med Chem Lett, 2012).

Chains of the proteins cited; added tags and fusions are not shown. Lines headed by an entry give the natural chain unless they say otherwise; changes in a name come on top.
UniProt Q13946: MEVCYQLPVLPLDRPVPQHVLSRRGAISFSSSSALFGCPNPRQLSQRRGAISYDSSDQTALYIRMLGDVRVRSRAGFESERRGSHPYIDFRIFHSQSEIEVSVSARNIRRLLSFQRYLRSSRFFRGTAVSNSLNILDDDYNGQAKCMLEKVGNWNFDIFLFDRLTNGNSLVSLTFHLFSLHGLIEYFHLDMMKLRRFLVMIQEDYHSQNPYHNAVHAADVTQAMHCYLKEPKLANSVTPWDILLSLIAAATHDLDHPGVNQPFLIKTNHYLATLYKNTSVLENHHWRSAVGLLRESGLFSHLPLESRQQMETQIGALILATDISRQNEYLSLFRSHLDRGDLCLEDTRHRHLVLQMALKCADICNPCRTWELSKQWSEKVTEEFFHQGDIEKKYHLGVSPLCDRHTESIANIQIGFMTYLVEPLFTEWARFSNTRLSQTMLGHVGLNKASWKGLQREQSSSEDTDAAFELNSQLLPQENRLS
UniProt P54750: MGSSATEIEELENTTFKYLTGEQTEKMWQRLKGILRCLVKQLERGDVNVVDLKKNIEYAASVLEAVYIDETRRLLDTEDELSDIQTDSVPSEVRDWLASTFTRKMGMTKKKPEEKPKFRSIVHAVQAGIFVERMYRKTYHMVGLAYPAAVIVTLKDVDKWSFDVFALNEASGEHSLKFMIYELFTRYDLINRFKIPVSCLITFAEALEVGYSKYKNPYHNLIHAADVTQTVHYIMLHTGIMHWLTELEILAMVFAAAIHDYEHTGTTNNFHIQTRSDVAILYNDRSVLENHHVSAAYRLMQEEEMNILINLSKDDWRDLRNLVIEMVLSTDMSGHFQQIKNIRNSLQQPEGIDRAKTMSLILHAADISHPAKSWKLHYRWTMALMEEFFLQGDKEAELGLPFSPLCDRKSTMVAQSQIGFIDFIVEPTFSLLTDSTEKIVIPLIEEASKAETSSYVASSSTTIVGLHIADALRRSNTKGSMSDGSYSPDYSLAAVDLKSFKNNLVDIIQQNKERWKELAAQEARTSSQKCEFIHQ
UniProt O76083: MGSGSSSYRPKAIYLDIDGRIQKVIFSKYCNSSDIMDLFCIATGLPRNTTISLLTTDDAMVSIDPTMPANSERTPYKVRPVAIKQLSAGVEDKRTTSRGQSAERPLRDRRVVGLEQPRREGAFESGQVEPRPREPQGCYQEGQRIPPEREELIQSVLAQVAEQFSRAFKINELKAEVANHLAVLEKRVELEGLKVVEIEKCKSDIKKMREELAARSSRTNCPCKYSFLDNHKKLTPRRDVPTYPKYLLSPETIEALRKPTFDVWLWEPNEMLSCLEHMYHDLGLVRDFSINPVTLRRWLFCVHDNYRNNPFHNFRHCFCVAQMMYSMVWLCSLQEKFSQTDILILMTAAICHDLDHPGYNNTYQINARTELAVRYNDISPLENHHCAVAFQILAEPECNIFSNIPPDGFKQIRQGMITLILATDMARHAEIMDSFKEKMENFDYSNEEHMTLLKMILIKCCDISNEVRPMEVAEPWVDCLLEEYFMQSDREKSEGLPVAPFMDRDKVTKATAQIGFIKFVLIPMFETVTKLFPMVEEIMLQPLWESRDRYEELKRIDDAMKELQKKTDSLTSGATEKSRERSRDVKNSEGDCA
UniProt Q07343: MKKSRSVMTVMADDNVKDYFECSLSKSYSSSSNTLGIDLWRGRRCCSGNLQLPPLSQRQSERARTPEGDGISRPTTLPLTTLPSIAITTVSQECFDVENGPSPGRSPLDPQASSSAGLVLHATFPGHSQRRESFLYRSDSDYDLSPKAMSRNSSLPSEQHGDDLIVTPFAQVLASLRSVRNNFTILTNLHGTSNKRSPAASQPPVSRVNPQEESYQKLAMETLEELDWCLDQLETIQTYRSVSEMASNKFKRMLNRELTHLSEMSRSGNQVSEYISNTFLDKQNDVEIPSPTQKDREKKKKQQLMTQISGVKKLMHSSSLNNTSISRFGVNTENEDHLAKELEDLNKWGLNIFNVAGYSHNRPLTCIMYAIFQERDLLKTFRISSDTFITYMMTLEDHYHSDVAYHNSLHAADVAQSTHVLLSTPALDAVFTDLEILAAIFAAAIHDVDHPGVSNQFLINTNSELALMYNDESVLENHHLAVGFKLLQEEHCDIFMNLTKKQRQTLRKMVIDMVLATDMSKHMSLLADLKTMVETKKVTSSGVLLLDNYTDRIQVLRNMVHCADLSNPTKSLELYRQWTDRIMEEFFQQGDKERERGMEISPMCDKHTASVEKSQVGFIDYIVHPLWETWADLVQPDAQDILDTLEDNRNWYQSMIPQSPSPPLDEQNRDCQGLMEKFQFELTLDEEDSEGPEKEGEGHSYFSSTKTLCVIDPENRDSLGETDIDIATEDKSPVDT
UniProt O00408, whole entry: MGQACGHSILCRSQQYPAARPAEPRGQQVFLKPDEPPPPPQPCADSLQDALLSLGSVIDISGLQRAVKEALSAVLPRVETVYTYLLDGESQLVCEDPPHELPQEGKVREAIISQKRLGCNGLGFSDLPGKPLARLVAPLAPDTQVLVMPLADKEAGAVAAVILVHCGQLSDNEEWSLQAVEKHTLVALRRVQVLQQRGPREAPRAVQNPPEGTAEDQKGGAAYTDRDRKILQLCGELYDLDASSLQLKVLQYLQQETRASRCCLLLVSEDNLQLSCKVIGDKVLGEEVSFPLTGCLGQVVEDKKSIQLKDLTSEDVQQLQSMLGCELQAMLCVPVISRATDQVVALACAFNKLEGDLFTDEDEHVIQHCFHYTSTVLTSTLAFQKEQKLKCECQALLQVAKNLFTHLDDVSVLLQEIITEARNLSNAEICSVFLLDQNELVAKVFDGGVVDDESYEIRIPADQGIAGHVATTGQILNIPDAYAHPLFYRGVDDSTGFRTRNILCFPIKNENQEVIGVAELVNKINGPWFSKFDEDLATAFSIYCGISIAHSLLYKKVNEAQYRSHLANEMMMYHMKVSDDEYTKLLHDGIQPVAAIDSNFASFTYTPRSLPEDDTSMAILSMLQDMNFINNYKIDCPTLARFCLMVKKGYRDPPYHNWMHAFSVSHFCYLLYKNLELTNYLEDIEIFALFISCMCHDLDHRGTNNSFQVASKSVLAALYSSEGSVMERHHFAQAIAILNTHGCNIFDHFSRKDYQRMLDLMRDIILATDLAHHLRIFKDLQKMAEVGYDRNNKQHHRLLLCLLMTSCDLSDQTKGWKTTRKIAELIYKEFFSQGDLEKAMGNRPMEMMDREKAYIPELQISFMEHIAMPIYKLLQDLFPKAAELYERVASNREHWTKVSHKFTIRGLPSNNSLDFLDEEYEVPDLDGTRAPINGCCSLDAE

The target in test [1] is High affinity 3',5'-cyclic-AMP phosphodiesterase 7A (Homo sapiens, UniProt Q13946). Nature of the test: Displacement of [3H]cAMP from PDE7A1 by competitive binding assay.
Test [2] deals with Dual specificity calcium/calmodulin-dependent 3',5'-cyclic nucleotide phosphodiesterase 1A (Homo sapiens, UniProt P54750). Kind of test: Displacement of [3H]cAMP from PDE1A3 by competitive binding assay.
For test [3], the target named is High affinity cGMP-specific 3',5'-cyclic phosphodiesterase 9A (Homo sapiens, UniProt O76083). Nature of the test: Displacement of [3H]cAMP from PDE9A1 by competitive binding assay.
Test [4] concerns the target 3',5'-cyclic-AMP phosphodiesterase 4B (Homo sapiens, UniProt Q07343). Nature of the test: Displacement of [3H]cAMP from PDE4B2 by competitive binding assay.
The target of test [5] is cGMP-dependent 3',5'-cyclic phosphodiesterase (Homo sapiens, UniProt O00408). Nature of the test: Displacement of [3H]cAMP from PDE2A by competitive binding assay.

In the case of `COc1cc(C)c2nc3[nH]nc(C)c3c(CN3CC[C@@H](O)C3)c2c1`, the Ki in test [1] and in test [2] was more than 10 µM each time.

As for `COc1cc(C)c2nc3[nH]nc(C)c3c(CN3CCOCC3)c2c1`, the Ki in test [1] and in test [2] was more than 10 µM throughout.

Regarding `COc1cc(C)c2nc3[nH]nc(C)c3c(CN3CCOC(C)C3)c2c1` (stereo not drawn), the Ki in test [3], in test [4], in test [1] and in test [2] was more than 10 µM throughout.

On to `COc1cc(C)c2nc3[nH]nc(C)c3c(CN3CCCOCC3)c2c1`, for which the Ki in test [3], in test [4], in test [1] and in test [2] was more than 10 µM throughout.

Regarding `Cc1cc(O)cc2c(CN3CCCOCC3)c3c(C)n[nH]c3nc12`, in test [5], the Ki is more than 10 µM.
